The source of these data is ChEMBL document CHEMBL1201862, “PubChem BioAssay data set” (2004).

This is one part of the list. Only a part of the results of these assays is listed, not drawn at random. Calls of active or inactive are those of the source. The calls are words filed in the database; no cut-off is given here.

This test concerns the target Guanine nucleotide-binding protein G(s) subunit alpha isoforms short (Homo sapiens) (UniProt P63092). Put plainly: qHTS for Agonist of gsp, the Etiologic Mutation Responsible for Fibrous Dysplasia/McCune-Albright Syndrome: qHTS. Format: functional. Background: qHTS replaces the single test concentration by a dilution series.
As to `C[C@H]1OP(=O)(Oc2ccccc2)C[C@@H]2O[C@@H]21` (stereo not given in full), the Potency entry is “inactive”.

`Cc1cc(O)nc(N[N+](=O)[O-])n1`: the Potency entry is “inactive”.

Regarding `CCOP(=O)(Nc1ccccc1)OCC`, the Potency entry was “inactive”.

As to `COC(=O)C1(C)COP(=O)(N2CCCCCC2)OC1` (stereo not given), the Potency entry was “inactive”.

As to `O=P1(N(CCCl)CCCl)Nc2ccccc2N1`, the Potency entry is “inactive”.

Consider `O=C(OC1CN2CCC1CC2)c1cccc(Cl)c1` (stereo not given), for which the Potency result was “inactive”.

Turning to `C[As](=O)(O)c1cccc(C(=O)O)c1`, the Potency entry is “inactive”.

Take `O=P(Nc1nccs1)(Oc1ccccc1)Oc1ccccc1`: the Potency result is “inactive”.

Take `CC(NC(=O)COC(=O)C(O)(c1ccccc1)c1ccccc1)c1ccccc1` (stereo not given): the Potency entry is “inactive”.

Regarding `CCC(=O)N1C2C3N(C(=O)CC)C1C1N(C(=O)CC)C(C(N1C(=O)CC)N3C(=O)CC)N2C(=O)CC`, the Potency entry was “inactive”.

With `O=C(OC1CN2CCC1CC2)c1ccc(Cl)cc1` (stereo not given), the Potency result is “inactive”.

As to `O=C(OC1CN2CCC1CC2)c1ccc([N+](=O)[O-])cc1` (stereo not given), the Potency result is “inactive”.

Regarding `CCC(=O)N(c1ccccc1)C1CCCCC1`, the Potency entry was “inactive”.

On to `O=C(O)COc1ccc([As](=O)(O)O)cc1[N+](=O)[O-]`, for which the Potency entry is “inactive”.

Turning to `Cc1ccc(S(=O)(=O)NCCCCC(NC(=O)OC(C)(C)C)C(=O)O)cc1.c1ccc(Nc2ccccc2)cc1` (stereo not given), the Potency entry is “inactive”.

As to `O=[N+]([O-])c1cc([N+](=O)[O-])c(-c2cc[nH]n2)s1`, the Potency entry is “inactive”.

In the case of `N#C/C(=C\c1ccc(N(CCBr)CCBr)cc1)C(N)=O`, the Potency result is “inactive”.

Regarding `COc1cc(C2NCCC3(OCCO3)C2(C)C)cc(OC)c1OC` (stereo not given), the Potency result was “inactive”.

For `CCC1=CC2Cc3nc4ccc(Cl)cc4c(N)c3C(C1)C2` (stereo not given), the Potency result was “inactive”.

Regarding `O=C(Nc1cc([As](=O)(O)O)ccc1O)c1ccccc1`, the Potency result was “inactive”.

In the case of `Cc1cc(SC(NC(=O)c2ccccc2)C(Cl)(Cl)Cl)nc(C(C)C)n1` (stereo not given), the Potency entry is “inactive”.

Regarding `CC(C)(C)C(=O)NC(Sc1ncccn1)C(Cl)(Cl)Cl` (stereo not given), the Potency result was “inactive”.

As to `COC(=O)C1(C)COP(=O)(NCc2ccccc2)OC1` (stereo not given), the Potency entry is “inactive”.

`CCC(C)N(CC(C)C)C(=S)SC(NC(C)=O)C(Cl)(Cl)Cl` (stereo not given): the Potency entry is “inactive”.

Consider `CCOP(=O)(NC(=NC(C)c1ccccc1)NC(C)c1ccccc1)OCC` (stereo not given), for which the Potency result is “inactive”.
